In patent publication US20010013317A1, “Medium for coloring live bait worms” (priority 1999, published 2001):

Experiment: Solubility of colorant in water
Conditions: at 25° C.

O=C([O-])c1c(Cl)c(Cl)c(Cl)c(Cl)c1-c1c2cc(Br)c(=O)c(Br)c-2oc2c(Br)c([O-])c(Br)cc12.[Na+].[Na+] [D & C Red 28]
Solubility in water: 9000 µg/mL
